What is called pIC50 is the IC50 on a negative log10 scale, so that one unit is a factor of ten.

The results in this text go back to US11992490B2, “Use of JAK1 inhibitors for the treatment of cutaneous lupus erythematosus and Lichen planus (LP)” (Incyte Corporation, priority 2019, dated 2024).

pIC50: −log10 of the molar value. Where only a bound is given, the exact number is not on record here.

The target in this test is human JAK1 (a.a. 837-1142) (Homo sapiens, UniProt P23458). Kind of test: In vitro JAK kinase assay (HTRF), JAK1. The following applies: 1 mM ATP. Format: biochemical.

`CN(C)Cc1cc(F)cc(OC2CCN(CC(CC#N)n3cc(-c4ncnc5[nH]ccc45)cn3)CC2)c1` (single isomer, unassigned) [Compound 14, 4-(4-{3-[(dimethylamino)methyl]-5-fluorophenoxy}piperidin-1-yl)-3-[4-(7H-pyrrolo[2,3-d]pyrimidin-4-yl)-1H-pyrazol-1-yl]butanenitrile]: the pIC50 is more than 8.00.
